Literature values, collected in patent US8916150B2 (priority 2009, dated 2014).

Conditions: in vivo

In the case of phytate, the “amount of oral zinc whose absorption may be inhibited” value is given as “up to 50 mg”.
